Test results taken from US8759377B2, “Substituted dioxopiperidines and dioxopyrrolidines as MGLUR4 allosteric potentiators, compositions, and methods of treating neurological dysfunction” (Vanderbilt University, priority 2009, dated 2014).
pEC50: −log10 of the molar value. Read-outs that look alike come from different tables or passages of the source.

Protein sequences, listed by entry. Tags and fused reporters are not part of them. Residues count along the entry.
UniProt Q14833, 33-912: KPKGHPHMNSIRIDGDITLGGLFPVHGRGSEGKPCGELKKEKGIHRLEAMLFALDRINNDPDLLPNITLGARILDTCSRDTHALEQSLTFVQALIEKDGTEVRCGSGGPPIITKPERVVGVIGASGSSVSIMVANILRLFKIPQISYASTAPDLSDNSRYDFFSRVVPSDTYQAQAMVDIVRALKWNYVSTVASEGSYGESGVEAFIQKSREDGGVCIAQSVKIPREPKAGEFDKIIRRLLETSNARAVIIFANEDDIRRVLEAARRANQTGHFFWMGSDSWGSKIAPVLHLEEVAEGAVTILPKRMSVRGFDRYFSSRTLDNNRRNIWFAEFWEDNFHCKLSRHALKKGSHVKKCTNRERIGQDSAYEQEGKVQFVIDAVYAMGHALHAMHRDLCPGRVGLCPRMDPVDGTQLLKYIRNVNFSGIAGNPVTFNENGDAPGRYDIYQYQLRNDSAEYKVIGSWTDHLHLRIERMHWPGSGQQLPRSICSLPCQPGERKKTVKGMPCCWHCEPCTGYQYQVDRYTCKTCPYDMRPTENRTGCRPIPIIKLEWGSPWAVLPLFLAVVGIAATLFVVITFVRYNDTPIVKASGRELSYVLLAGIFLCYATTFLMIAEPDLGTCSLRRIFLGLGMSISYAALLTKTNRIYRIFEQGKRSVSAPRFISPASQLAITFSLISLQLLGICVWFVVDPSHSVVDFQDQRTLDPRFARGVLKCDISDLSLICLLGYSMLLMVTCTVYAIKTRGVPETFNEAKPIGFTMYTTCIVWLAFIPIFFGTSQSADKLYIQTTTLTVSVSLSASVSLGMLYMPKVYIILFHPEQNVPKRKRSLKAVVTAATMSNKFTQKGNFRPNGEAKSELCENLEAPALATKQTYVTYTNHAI

Biological target: T1, human mGluR4 (Homo sapiens, UniProt Q14833)
T1 construct: expressed in transfected cells; host or cells: CHO cells
Assay: human mGluR4 potentiation, Ca2+-sensitive dye fluorescence assay in transfected CHO cells
Format: cell-based
Method: The disclosed compounds and compositions can be evaluated for their ability to act as a potentiator of metabotropic glutamate receptor activity, in particular mGluR4 activity, by any suitable known methodology known in the art. For example, Chinese Hamster Ovary (CHO) cells transfected with human mGluR4 or HEK cells co-transfected with rat mGluR4 and the G-protein regulated Inwardly Rectifying Potassium channel (GIRK) were plated in clear bottom assay plates for assay in a Hamamatsu FDSS Fluorometric Plate Reader. The cells were loaded with either a Ca2+-sensitive fluorescent dye or the thallium responsive dye and the plates were washed and placed into a suitable kinetic plate reader. For human mGluR4 assays, a fluorescence baseline was established for 3-5 seconds, the disclosed compounds were then added to the cells, and the response in cells was measured. Approximately two and a half minutes later, a concentration of mGluR4 orthosteric agonist (e.g. glutamate or L-AP4) eliciting approximately 20% (EC20) of the maximal agonist response was added to the cells, and the response was measured. Two minutes later, a concentration of mGluR4 agonist (e.g. glutamate or L-AP4) eliciting 80% (EC80) of the maximal agonist response was added to the cells, and the response was measured. For rat mGluR4/GIRK experiments, a baseline was established for approximately five seconds, disclosed compounds were added, and either an EC20 or EC80 concentration of agonist was added approximately two and one half minutes later.
The above described assay operated in two modes. In the first mode, a range of concentrations of the disclosed compounds are added to cells, followed by a single fixed concentration of agonist. If the compound acts as a potentiatior, an EC50 value for potentiation and a maximum extent of potentiation by the compound at this concentration of agonist is determined by non-linear curve fitting. If the compound acts as a noncompetitive antagonist, an IC50 value is determined by non-linear curve fitting. In the second mode, several fixed concentrations of the disclosed compounds are added to various wells on a plate, followed by a range in concentrations of agonist for each concentration of disclosed compound. The ECso values for the agonist at each concentration of compound are determined by non-linear curve fitting. A decrease in the EC50 value of the agonist with increasing concentrations of the sample compound (a leftward shift of the agonist concentration-response curve) is an indication of the degree of mGluR4 potentiation at a given concentration of the sample compound. […]

[1] = EC50 for potentiation, human mGluR4, with EC20 concentration of agonist, read-out: hEC50

| Structure (SMILES) | pEC50 [1] | pEC50 |
| --- | --- | --- |
| O=C(Nc1ccc(N2C(=O)[C@@H]3[C@H](C2=O)[C@@H]2C=C[C@H]3CC2)c(Cl)c1)c1ccccn1 [Example 1] | 7.01 | – |
| CC1(c2ccccc2)CC(=O)N(c2ccc(NC(=O)c3ccccn3)cc2Cl)C1=O (stereo not shown) [Example 6, N-(3-chloro-4-(3-methyl-2,5-dioxo-3-phenylpyrrolidin-1-yl)phenyl)picolinamide] | 6.18 | – |
| O=C(Nc1ccc(N2C(=O)[C@@H]3CCCC[C@H]3C2=O)c(Cl)c1)c1ccccn1 [Example 8, N-(3-chloro-4-((3aR,7aR)-1,3-dioxo-1H-isoindol-2(3H,3aH,4H,5H,6H,7H,7aH)-yl)phenyl)picolinamide] | – | 6.20 |
| O=C(Nc1ccc(N2C(=O)[C@H]3CCCC[C@H]3C2=O)c(Cl)c1)c1ccccn1 [Example 9, N-(3-chloro-4-((3aR,7aS)-1,3-dioxo-1H-isoindol-2(3H,3aH,4H,5H,6H,7H,7aH)-yl)phenyl)picolinamide] | 6.21 | – |
